This passage reports IC50 results from patent US20100129356A1 (Genentech, published 2010).

The chains behind the UniProt entries cited, without tags or fusion partners. Residues count along the entry.
UniProt P05187, 23-511: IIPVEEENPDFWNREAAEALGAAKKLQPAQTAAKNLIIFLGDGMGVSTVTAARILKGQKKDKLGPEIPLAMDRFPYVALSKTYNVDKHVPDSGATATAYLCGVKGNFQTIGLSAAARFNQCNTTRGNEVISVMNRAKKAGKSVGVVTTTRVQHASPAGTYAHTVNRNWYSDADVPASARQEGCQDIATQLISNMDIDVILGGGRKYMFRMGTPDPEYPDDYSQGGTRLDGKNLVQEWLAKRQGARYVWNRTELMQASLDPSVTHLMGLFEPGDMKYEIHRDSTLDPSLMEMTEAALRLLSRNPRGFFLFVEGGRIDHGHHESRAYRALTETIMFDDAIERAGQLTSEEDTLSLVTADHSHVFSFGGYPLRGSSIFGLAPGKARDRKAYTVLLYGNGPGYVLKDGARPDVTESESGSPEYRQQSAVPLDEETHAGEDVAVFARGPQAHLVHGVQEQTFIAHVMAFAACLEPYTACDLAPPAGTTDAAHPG

Usually IC50 stands for the concentration needed to halve the response being measured. Lower therefore signals higher potency.

This assay concerns the target DLL4-AP (amino acid 1-404 of DLL4 fused to human placenta alkaline phosphatase) (human, UniProt P05187 23-511). The assay can be described thus: blocking ELISA: antibody titrated against DLL4-AP binding to coated rrNotch1-Fc. A general note: ELISA stands for enzyme-linked immunosorbent assay.

B1: anti-DLL4 Mab YW26.82 (antibody, V domains shown)
VH: EVQLVESGGGLVQPGGSLRLSCAASGFTFTDNWISWVRQAPGKGLEWVGYISPNSGFTYYADSVKGRFTISADTSKNTAYLQMNSLRAEDTAVYYCARDNFGGYFDYWGQGTLVTVSS
VL: DIQMTQSPSSLSASVGDRVTITCRASQDVSTAVAWYQQKPGKAPKLLIYSASFLYSGVPSRFSGSGSGTDFTLTISSLQPEDFATYYCQQSYTGTVTFGQGTKVEIK
For B1, the IC50 was about 12 nM.
